Data published in patent publication US6458748B1, “Di- or tri-fluoromethanesulfonyl anilide derivatives, process for the preparation of them and herbicides containing them as the active ingredient” (Ihara Chemical Industry Co., Ltd., priority 1998, dated 2002).
Where two headings read alike, the source gives them in different places.

Tested on: SD-strain pregnant rats

2-[(4,6-dimethoxypyrimidine-2-yl)hydroxymethyl]-6-methoxymethyltrifluoromethanesulfonyl anilide [Example 4]
Teratology Test results (400 mg/kg/day oral, 6th to 15th day of pregnancy, examined 20th day): Pass

COc1cc(OC)nc(C(O)c2ccccc2NS(=O)(=O)C(F)(F)F)n1 (stereo not shown) [Comparative Compound, 2-[(4,6-dimethoxypyrimidine-2-yl)hydroxymethyl]-N-trifluoromethanes ulfonyl anilide, reference compound]
Teratology Test results (rat, in vivo): Fail | external malformation in the gross examination of fetus (rat, in vivo, po): the ectrodactyly and brachydactyly of front leg were seen | fetus weight in the fetal examination (rat, in vivo, po): decrease in fetus weight was seen

COc1cc(OC)nc(C(O)c2ccccc2NS(=O)(=O)C(F)F)n1 (stereo not shown) [Example 1, 2-[(4,6-dimethoxypyrimidine-2-yl)hydroxymethyl]-N-difluoromethanesulfonyl anilide]
Teratology Test results (450 mg/kg/day oral, 6th to 15th day of pregnancy, examined 20th day): Pass

COCc1cccc(C(O)c2nc(OC)cc(OC)n2)c1NS(=O)(=O)C(F)F (stereo not shown) [Example 2, 2-[(4,6-dimethoxypyrimidine-2-yl)hydroxymethyl]-6-methoxymethyl-N-difluoromethanesulfonyl anilide]
Teratology Test results (550 mg/kg/day oral, 6th to 15th day of pregnancy, examined 20th day): Pass

CCc1cccc(C(O)c2nc(OC)cc(OC)n2)c1NS(=O)(=O)C(F)F (stereo not shown) [Example 3, 2-[(4,6-dimethoxypyrimidine-2-yl)hydroxymethyl]-6-ethyl-N-difluoromethanesulfonyl anilide]
Teratology Test results (1000 mg/kg/day oral, 6th to 15th day of pregnancy, examined 20th day): Pass
